In patent publication US7736621B2, “Methods for gauging the effect of a depression treatment by determining the levels of beta-arrestin 1 and G-protein coupled receptor kinase 2” (Hypatia Ltd., priority 2004, dated 2010):

System: beta-arrestin1
Assay: Beta-arrestin 1 levels in rat brain areas after chronic antidepressant treatment (immunoblot)
Format: in vivo
Settings: three weeks of treatment
Method: On the 22nd day, rats were decapitated, blood collected and brain regions immediately dissected. Tissue homogenization was carried out in a glass-teflon homogenizer with ice-cold buffer containing 20 mM Tris.Cl pH 7.4, 2 mM EDTA, 1 mM DTT and antiprotease cocktail (Sigma). After initial centrifugation at 800 g for 5 min, the supernatant was collected and further centrifuged at 48,000 g for 30 min using a Beckman Ti80 rotor. The resulting supernatant and pellet were separated: the supernatant fraction was collected and centrifuged at 120,000 g for 45 min and the supernatant obtained was used for all measurements; the pellet was resuspended in the homogenization buffer and the pellet fraction obtained was used for all measurements.
On the day of assay, cytosolic and/or membrane fraction were thawed. 10 μg total protein aliquots were taken for protein separation by SDS-(10%) polyacrylamide gel electrophoresis. The resulting proteins were transferred to nitrocellulose paper by use of electroblotting apparatus. Blots were blocked with 5% BSA for 1 hr in TBS containing 0.1% Tween-20 (TTBS) and incubated overnight with a monoclonal antibody to beta-arrestin1 (Transduction Labs, diluted 1:250). The immune bands were detected by subsequent incubation with anti-mouse IgG labeled with horseradishperoxidase using the Enhanced Chemiluminescence Western Blot Detection System (Amersham) followed by exposure to Kodak X-Omat film. […] Peak heights of immunoreactive bands presented as arbitrary absorbance units, were determined with a computer-assisted imaging system for semi-quantitative measurements. 10 μg rat cortical membranes run in each blot as a standard reference.
Beta-arrestin1 levels were measured in three rat brain areas: cortex, hippocampus and striatum.

CNCCCN1c2ccccc2CCc2ccccc21 [desipramine]
Cytosolic beta-arrestin-1 in rat cortex (rat cortex, cytosolic fraction, 10 mg/kg twice daily intragastrically, compared with control group): 163.4%
Membrane beta-arrestin 1 in rat cortex (rat cortex, membrane fraction, 10 mg/kg twice daily intragastrically, compared with control group): 146.2%
Cytosolic beta-arrestin-1 in rat hippocampus (rat hippocampus, cytosolic fraction, 10 mg/kg twice daily intragastrically, compared with control group): 151.6%
Membrane beta-arrestin-1 in rat hippocampus (rat hippocampus, membrane fraction, 10 mg/kg twice daily intragastrically, compared with control group): 162.9%
Beta-arrestin 1 levels in striatum (rat striatum): no alterations
